Laboratory results from US11365204B2, “Substituted dihydrothienopyrimidines and their use as phosphodiesterase inhibitors” (UNION therapeutics A/S, priority 2017, dated 2022).

By UniProt entry, the sequences of proteins in these tests, tags left out. Residues count along the entry.
UniProt Q08499, 380-740 limits assumed: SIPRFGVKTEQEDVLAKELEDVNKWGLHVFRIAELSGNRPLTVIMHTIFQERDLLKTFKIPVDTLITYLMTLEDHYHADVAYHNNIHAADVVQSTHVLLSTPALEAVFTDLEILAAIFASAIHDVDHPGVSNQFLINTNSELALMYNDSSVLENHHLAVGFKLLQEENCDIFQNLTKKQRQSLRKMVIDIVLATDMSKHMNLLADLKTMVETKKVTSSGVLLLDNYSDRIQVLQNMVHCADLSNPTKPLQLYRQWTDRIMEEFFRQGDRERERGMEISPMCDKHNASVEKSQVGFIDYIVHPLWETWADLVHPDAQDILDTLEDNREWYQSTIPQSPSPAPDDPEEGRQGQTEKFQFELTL

What was measured:
[1] = molecular target: human PDE4D catalytic domain (UniProt no. Q08499 [S380-L740]) (Homo sapiens (Human), UniProt Q08499); experiment: PDE4 assay (TR-FRET, cAMP hydrolysis); conditions: read-out: PDE4 IC50 range
Experimental: The human PDE4D catalytic domain (UniProt no. Q08499 [S380-L740]) was incubated with a mixture of non-labelled cAMP (cyclic adenosine monophosphate) and fluorescein amidite (FAM) conjugated cAMP and titrated test or reference compound.
Following brief incubation the enzymatic reaction was stopped by addition of binding buffer containing nanoparticles with immobilized trivalent metal ions capable of binding 1) AMP phospho groups and 2) terbium (Tb) donor fluorophores. Subsequent excitation of the Tb donor triggered time-resolved FRET to adjacent FAM acceptor molecules resulting in light emission. In the presence of a PDE4 inhibitor, AMP generation was reduced resulting in a lower fluorescence signal. The cAMP phosphodiester is not bound by the detection system.
Results were expressed as IC50 values (nM) calculated from inhibition curves where the TR-FRET signal was normalized to Tb fluorescence intensity and the negative (DMSO vehicle) and positive (10 microM a PDE4 inhibitor reference compound) controls.

[2] = test system: Human peripheral blood mononuclear cells (PBMC); experiment: TNF-α release from LPS-stimulated PBMC; conditions: read-out: TNF-α IC50 range, Lipopolysaccharide 1 microg/ml, 18 hours, AlphaLISA
Experimental: Human peripheral blood mononuclear cells (PBMC) were isolated from fresh buffy coats by density centrifugation using lymphoprep tubes (Medinor). Frozen PBMC's were washed in serum free assay buffer (RPMI1640 with 25 mM HEPES, 1% pen/strep, […] L glutamine, 0.5% human serum albumin) and living cells counted. Lipopolysaccharide (1 microg/ml; SIGMA) was added to the cells which were then transferred to 384 well tissue culture plates ([…]) containing titrated test compounds. The cells were incubated for 18 hours at 37° C. in serum free assay buffer and the level of TNFalpha in the supernatant was quantitated by AlphaLISA (PerkinElmer) by measuring fluorescence intensity at 615 nm.
Results were expressed as IC50 values calculated from inhibition curves using as controls the secretion in LPS stimulated wells and the secretion in cells incubated with 10 microM of a PDE4 inhibitor reference compound.

CC(=O)N1CC[C@H](Nc2nc(N3CC(OC(=O)c4cnsc4)C3)nc3c2[S+]([O-])CC3)C1 (some centres unmarked)
IC50 [1]: < 0.1 µM
IC50 [2]: < 0.1 µM
